Patent US4743611A, “Naphthalenylsulfonylimidazolidinediones and their thioxo analogs useful as aldose reductase inhibitors” (American Home Products Corp., priority 1987, dated 1988)

Biological target: T1, aldose reductase (Bos taurus, UniProt P16116)
T1 construct: preparation of the enzyme from bovine lens; from tissue; host or cells: bovine lens
Assay: in vitro inhibition of aldose reductase (enzyme from bovine lens, modified Hayman and Kinoshita procedure)
Assay type: biochemical
Settings: read-out: % inhibition in vitro
Description: […] The aldose reductase inhibiting effects of the compounds of formula (I) were also tested by employing an in vitro testing procedure similar to that described by S. Hayman and J. H. Kinoshita, J. Biol. Chem., 240, 877 (1965).
In the present case the procedure of Hayman and Kinoshita was modified in that the final chromatography step was omitted in the preparation of the enzyme from bovine lens.

Compound O=C1CN(S(=O)(=O)c2cccc3c(I)cccc23)C(=O)N1 [Example 18, 1-[(5-iodo-1-naphthalenyl)sulfonyl]-2,4-imidazolidinedione] has an inhibition at 10 µM of 94%.
